Laboratory results published in US9802929B2, “Benzo five-membered nitrogen heterocyclic piperidine or piperazine derivatives and preparation methods and pharmaceutical compositions thereof” (Shenyang Haiwang Biotechnology Co., Ltd., priority 2012, dated 2017).

Tested on: 5-HT2A receptors
Assay: Antagonism of 5-HT cumulative contraction of rabbit aorta, pA2

## FC(F)(F)c1cccc(N2CCN(CCCCn3cnc4ccccc43)CC2)c1 [Compound II-36, 1-(4-(4-(3-trifluoromethylphenyl)piperazin-1-yl)butyl)-1H-benzimidazole]
  PA2 value against 5-HT contraction: 5.71±0.08
